# Experimental vapor pressure values from OPERA 2.9

Source: data files of OPERA 2.9 (Mansouri et al.), github.com/kmansouri/OPERA.

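These are experimental values that the OPERA curators gathered from public databases to train and test their QSAR models. The files give a single number for a compound and property, which may rest on several reports. Method, purity and exact conditions of the single measurements are not given. Where a salt, mixture or single isomer is drawn, the source does not say that exactly this form was tested. Some upstream entries may be estimates or bounds without being marked so.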

Vapor pressure is log10 of mmHg; the set covers 15 to 30 °C, mostly 20 to 25 °C. Cells with "n/a" have no entry in this list. "via" names the databases from which the curators took the value.

structure (SMILES)	name	vapor pressure (log10 mmHg)	via
C=CC(C)(CCC=C(C)C)OC=O (stereo not given)	Linalyl formate	-0.715	eChemPortal
CCOc1ccc(Cc2cc([C@@H]3O[C@H](COC(C)=O)[C@@H](OC(C)=O)[C@H](OC(C)=O)[C@H]3OC(C)=O)ccc2Cl)cc1	n/a	-5.593	eChemPortal
COCC(F)(F)C(F)(F)F	Methyl 1H,1H-perfluoropropyl ether	2.484	ICF
C/C=C\C(C)C	2-pentene, 4-methyl-, (z)-	2.368	OCHEM
Cc1cc(C(F)(C(F)(F)F)C(F)(F)F)ccc1NC(=O)c1ccccc1/C(O)=N/C(C)(C)CS(C)=O (stereo partly drawn)	n/a	-11.19	eChemPortal
ClC1=C(Cl)C2(Cl)C(Cl)=C(Cl)[C@@H]3C[C@H]1C2C3Cl (stereo partly drawn)	beta-Chlordene	-4.699	OCHEM
C=CCCCCCC=O	Oct-7-enal	0.537	eChemPortal
CC(C)=CC1CC(C)CCO1 (stereo not given)	4-Methyl-2-(2-methylprop-1-en-1-yl)tetrahydro-2H-pyran	-0.32	eChemPortal
Nc1ncccc1Br	2-Amino-3-bromopyridine	-2.038	eChemPortal
Brc1cc(Br)c(Oc2ccc(Br)c(Br)c2Br)cc1Br	2,2',3,4,4',5'-Hexabromodiphenyl Ether	-8.553	OCHEM
CCO[Si](C)(CCl)OCC	(Chloromethyl)(diethoxy)methylsilane	1.276	eChemPortal
CCCCCCCCCc1ccc(OCC(=O)O)cc1	4-nonylphenoxy acetic acid (NP1EC)	-4.727	eChemPortal
Cc1nc(C(F)(F)F)c(C(O)=Nc2c(Br)cc(OC(F)(F)F)cc2Br)s1	Thifluzamide	-11.12	OCHEM
CN(C)CCOCCN(C)CCO	2-[{2-[2-(Dimethylamino)ethoxy]ethyl}(methyl)amino]ethanol	-1.046	eChemPortal
CC(=O)C=O	Methyl glyoxal	1.275	eChemPortal
CCCCC(CC)COC(=O)C(C#N)=C(c1ccccc1)c1ccc(OC)cc1 (stereo not given)	n/a	-9.727	eChemPortal
CC(C)(C)CC(C)(C)c1ccc(OCCOCC[N+](C)(C)Cc2ccccc2)cc1.[Cl-]	Benzethonium chloride	-9.687	eChemPortal
OCCCCCCCl	6-Chlorohexan-1-ol	-0.097	eChemPortal
O=C1CCCCCCCC=CCCCCCCO1	n/a	-4.297	eChemPortal
CC(C)(C)C(=O)OC[C@H]1O[C@H](Br)[C@H](OC(=O)C(C)(C)C)[C@@H](OC(=O)C(C)(C)C)[C@@H]1OC(=O)C(C)(C)C	n/a	-8.314	eChemPortal
C=CC(=O)OCCOC(=O)NCCCCCCCCCCCCCCCCCC	n/a	-5.292	eChemPortal
CN(CCO)S(=O)(=O)C(F)(F)C(F)(F)C(F)(F)C(F)(F)F	2-(N-(Perfluorobutylsulfonyl)-N-methylamino)ethanol	-4.523	eChemPortal
CC1CC(C)S(=O)(=O)C1 (stereo not given)	2,4-Dimethylthiolane 1,1-dioxide	-2.116	OCHEM
CCOC(=O)C(C)(C)Oc1ccc(Cl)cc1	Clofibrate	-2.595	OCHEM
NCCC(=O)N[C@@H](Cc1cnc[nH]1)C(=O)O	n/a	-6.68	eChemPortal
O=S(Cc1ccccc1)Cc1ccccc1	Benzyl sulfoxide	-7.233	eChemPortal
C[Si](C)(F)CCCC#N	4-[Fluoro(dimethyl)silyl]butanenitrile	0.773	eChemPortal
C/C=C/C1CCC(C2CCC(CCC)CC2)CC1 (stereo partly drawn)	4-[(1E)-Prop-1-en-1-yl]-4'-propyl-1,1'-bi(cyclohexane)	-4.129	eChemPortal
CCCCCCCC(=O)OCCCOC(=O)CCCCCCC	1,3-Propanediol dicaprylate	-5.227	eChemPortal
O=C(CCCCC(=O)N(CCO)CCO)N(CCO)CCO	N,N,N',N'-Tetrakis(2-hydroxyethyl)hexanediamide	-4.87	eChemPortal
O=C1c2cccc(Cl)c2C(=O)c2c(Cl)cccc21	1,8-Dichloroanthraquinone	-6.78	eChemPortal
C#CCC(O[Si](CC)(CC)CC)[Si](CC)(CC)CC (stereo not given)	Triethyl{[1-(triethylsilyl)but-3-yn-1-yl]oxy}silane	-2.853	eChemPortal
COc1ccc(N2CCN(c3ccc([N+](=O)[O-])cc3)CC2)cc1	1-(4-methoxyphenyl)-4-(4-nitrophenyl)piperazine	-9.929	eChemPortal
COc1cc(Cl)c(Cl)c(Cl)c1Cl	n/a	-2.045	OCHEM
C=C(C)C(=O)OCCN=C=O	2-Isocyanatoethyl methacrylate	-0.726	eChemPortal
CN1CCN(C)CCN(C)CC1	1,4,7-Trimethyl-1,4,7-triazacyclononane	-0.035	eChemPortal
CC(=O)OCCC(C)CCC=C(C)C (stereo not given)	Citronellyl acetate	-1.654	eChemPortal
CC(C)(Br)CBr	Propane, 1,2-dibromo-2-methyl-	1.289	OCHEM
Cc1cc(N=Nc2ccc([N+](=O)[O-])cc2)ccc1N(C)C	N,N,2-Trimethyl-4-[(4-nitrophenyl)diazenyl]aniline	-8	OCHEM
N#Cc1ccccc1C#N	1,2-Benzenedicarbonitrile	-1.474	PubChem
COc1cc(OC)nc(Sc2cccc3c2C(=O)OC3C)n1 (stereo not given)	Pyriftalid	-9.783	OCHEM
CC(CC(C)C)=NCCNCCN=C(C)CC(C)C	N1,N3-Bis(1,3-dimethylbutylidene)diethylenetriamine	-3.581	OFMPub
Clc1cc(-c2c(Cl)cccc2Cl)c(Cl)c(Cl)c1Cl	2,2',3,4,5,6'-Hexachlorobiphenyl	-4.425	OCHEM
CCOC(=O)CCC(=O)CC1(O)C2(Cl)C3(Cl)C4(Cl)C(Cl)(Cl)C5(Cl)C3(Cl)C1(Cl)C5(Cl)C42Cl (stereo not given)	Kelevan	-4.979	OCHEM

6 of these entries, quoted again:

structure (SMILES)	name	vapor pressure (log10 mmHg)	via
COc1cc(OC)nc(Sc2cccc3c2C(=O)OC3C)n1 (stereo not given)	Pyriftalid	-9.783	OCHEM
ClC1=C(Cl)C2(Cl)C(Cl)=C(Cl)[C@@H]3C[C@H]1C2C3Cl (stereo partly drawn)	beta-Chlordene	-4.699	OCHEM
C=CC(=O)OCCOC(=O)NCCCCCCCCCCCCCCCCCC	n/a	-5.292	eChemPortal
O=C1CCCCCCCC=CCCCCCCO1	n/a	-4.297	eChemPortal
CC(C)=CC1CC(C)CCO1 (stereo not given)	4-Methyl-2-(2-methylprop-1-en-1-yl)tetrahydro-2H-pyran	-0.32	eChemPortal
Clc1cc(-c2c(Cl)cccc2Cl)c(Cl)c(Cl)c1Cl	2,2',3,4,5,6'-Hexachlorobiphenyl	-4.425	OCHEM